The values that follow come from PubChem BioAssay AID743255 (National Center for Advancing Translational Sciences (NCATS), 2014).

Protein sequences, listed by entry. Tags and fused reporters are not part of them.
UniProt O94782, whole entry, looked up: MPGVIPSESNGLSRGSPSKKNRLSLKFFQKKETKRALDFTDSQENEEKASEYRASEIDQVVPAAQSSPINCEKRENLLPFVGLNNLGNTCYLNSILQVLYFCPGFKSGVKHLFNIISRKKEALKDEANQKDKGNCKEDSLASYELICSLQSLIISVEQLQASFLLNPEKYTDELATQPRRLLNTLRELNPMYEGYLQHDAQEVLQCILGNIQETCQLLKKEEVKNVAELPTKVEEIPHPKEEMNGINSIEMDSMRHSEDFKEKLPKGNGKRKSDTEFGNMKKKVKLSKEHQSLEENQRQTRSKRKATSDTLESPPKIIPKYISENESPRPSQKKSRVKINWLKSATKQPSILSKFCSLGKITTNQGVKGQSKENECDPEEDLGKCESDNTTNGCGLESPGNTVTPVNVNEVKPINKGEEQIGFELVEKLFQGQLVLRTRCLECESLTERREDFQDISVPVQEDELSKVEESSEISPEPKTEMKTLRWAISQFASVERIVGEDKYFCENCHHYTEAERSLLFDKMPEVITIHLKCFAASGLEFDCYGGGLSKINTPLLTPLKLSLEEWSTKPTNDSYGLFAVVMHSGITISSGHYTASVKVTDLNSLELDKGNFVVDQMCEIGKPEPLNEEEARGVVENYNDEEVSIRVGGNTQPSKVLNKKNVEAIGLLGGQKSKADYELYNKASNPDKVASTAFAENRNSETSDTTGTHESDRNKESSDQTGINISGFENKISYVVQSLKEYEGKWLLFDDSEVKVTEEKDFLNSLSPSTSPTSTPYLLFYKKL

SMILES strings stand for the structures. Only a part is listed here, and it is no random draw. Results filed as inconclusive are left out. Some salts or complexes appear as unconnected parts, following the source record. Calls of active or inactive are those of the source. Calls follow the shape of the dose curve; as a rule, active = well fitted inhibition curve with a large enough effect; inconclusive = small, poorly fitted or top-dose-only effect; inactive = no such curve, though single readings can be large or run the other way.
% is scaled to controls: 0 for no effect and ±100 for the full control effect.

The assay addresses Ubiquitin carboxyl-terminal hydrolase 1 (Homo sapiens) (UniProt O94782). As to the kind of experiment: Inhibitors of USP1/UAF1: Primary Screen. Also: nearly all actives have a fitted effect of over 60% in size. The settings on record: recombinant USP1/UAF1, Ub-Rhodamine cleavage fluorescence; at 57.1 µM (top of the series). From the text:
Deubiquitinating enzymes (DUBs) are a class of enzymes that can cleave isopeptide bond formed between the C-terminal carboxylate of ubiquitin and a lysine side-chain amino group on the target protein. Among them, ubiquitin specific proteases (USPs) constitute the largest DUB family. Human USPs are emerging as promising targets for pharmacological intervention because of their connection to a number of human diseases, including prostate, colon and breast cancer (1, 2), pediatric acute lymphoblastic leukemia (3), and familial cylindromatosis (4). The advantage of inhibiting USPs lies in the potential specificity of therapeutic intervention that can lead to better efficacy and reduce nonspecific side effects. In a collaboration between the University of Delaware and the NIH Chemical Genomics Center, a high-throughput screen assay was developed to screen for USP1/UAF1 inhibitors. This miniaturized assay has a fluorescent read-out and is used to screen the NIH Molecular Libraries Small Molecule Repository (MLSMR) in order to identify a small molecule that inhibits USP1. NIH Chemical Genomics Center [NCGC] NIH Molecular Libraries Probe Centers Network [MLPCN] MLPCN Grant: DA030552 Assay Submitter (PI): Zhihao Zhuang, University of Delaware 1. Priolo, C., et al. (2006) The isopeptidase USP2a protects human prostate cancer from apoptosis. Cancer Res 66, 8625-8632 2. Popov, N., et al. (2007) The ubiquitin-specific protease USP28 is required for MYC stability. Nat Cell Biol 9, 765-774 3. De Pitta, C., et al. (2005) A leukemia-enriched cDNA microarray platform identifies new transcripts with relevance to the biology of pediatric acute lymphoblastic leukemia. Haematologica 90, 890-898 4. Kovalenko, A., et al. (2003) The tumour suppressor CYLD negatively regulates NF-kappaB signalling by deubiquitination. Nature 424, 801-805
3 microliters of reagents (buffer in columns 3 and 4 as negative control and 1nM USP1/UAF1 complex in columns 1, 2, and 5-48) are dispensed into Greiner black solid bottom 1536-well assay plates. Compounds are then transferred via Kalypsys pin tool equipped with 1536-pin array (10nl slotted pins, V&P Scientific, San Diego, CA). Following an incubation step of 15 min at room temperature, 1ul of Ub-Rho substrate (150nM final concentration) is added to initiate the reaction. The plates are immediately centrifuged at 1000 rpm for 15 seconds, and subsequently transferred to a ViewLux high-throughput CCD imager (PerkinElmer) wherein kinetic measurements of fluorescence are acquired using 480 nm excitation/540 nm emission filter set (6 reads every 60 seconds, see Table 1). All reagents are diluted in an assay buffer consisting of 50mM HEPES (pH 7.8), 0.5mM EDTA, 0.1 mg/ml BSA, 1mM TCEP, and 0.01% Tween-20.
Take `CCOC(=O)N1CCC(Nc2ccc(C)cc2)CC1`: the activity change, negative = inhibition is inactive: -15.5%.

Consider `N/C(=N\O)c1c(N)no[n+]1[O-]`, for which the activity change, negative = inhibition is inactive: -15.8%.

Turning to `CCOC(=O)C(CC)C1=NC(C)(C)Cc2ccccc21.O=[N+]([O-])c1cc([N+](=O)[O-])c(O)c([N+](=O)[O-])c1` (configuration not stated), the activity change, negative = inhibition is inactive: -22%.

Turning to `O=C(NCC1(N2CCOCC2)CCCCC1)c1ccccc1[N+](=O)[O-]`, the activity change, negative = inhibition is inactive: -25.3%.

As for `N#Cc1ccc(C(=O)NCC2(N3CCCCC3)CCCCC2)cc1`, the activity change, negative = inhibition was inactive: -15.6%.

On to `CC(C)(C)OC(=O)N1CCC(N(C(=O)c2ccccc2)c2ccc(Cl)cc2)CC1`, for which the activity change, negative = inhibition is inactive: -19.3%.

Consider `O=C(NCC1(N2CCOCC2)CCCCC1)c1ccc([N+](=O)[O-])cc1`, for which the activity change, negative = inhibition is inactive: -31.1%.

With `CN(C)C1(CNC(=O)c2cccc(C#N)c2)CCCCC1`, the activity change, negative = inhibition was inactive: 4.57%.

`c1ccc(CN2CCC(Nc3ccccc3)CC2)cc1`: the activity change, negative = inhibition is inactive: -20%.

For the compound `CCCN1CCC(Nc2cc(OC)cc(OC)c2)CC1`, the activity change, negative = inhibition was inactive: -17.6%.

With `Cc1cc(N(CCCl)CCCl)ccc1C=O`, the activity change, negative = inhibition is inactive: -17.4%.

Regarding `O=C(NCC1(N2CCOCC2)CCCCC1)c1ccccc1`, the activity change, negative = inhibition was inactive: -11.7%.

For the compound `CCN1CCC(Nc2ccc(Cl)cc2)CC1`, the activity change, negative = inhibition was inactive: -1.71%.

Take `N#CC1(Nc2ccccc2)CCN(CCc2ccccc2)CC1`: the activity change, negative = inhibition is inactive: 3.46%.

For the compound `O=C(NCC1(N2CCCCC2)CCCCC1)c1cccc([N+](=O)[O-])c1`, the activity change, negative = inhibition was inactive: 1.24%.

Turning to `CCOc1ccc(C(=O)NCC2(N3CCOCC3)CCCCC2)cc1`, the activity change, negative = inhibition is inactive: -19.5%.

Turning to `CSc1ccc(C(=O)NCC2(N3CCOCC3)CCCCC2)cc1`, the activity change, negative = inhibition was inactive: 0.646%.

For the compound `O=C(NCC1(N2CCCCC2)CCCCC1)c1ccc(OC(F)F)cc1`, the activity change, negative = inhibition is inactive: -15.1%.

Regarding `O=C(NCC1(N2CCOCC2)CCCCC1)c1cc(=O)[nH]c2ccccc12`, the activity change, negative = inhibition is inactive: -8.45%.

On to `COc1cc(C(=O)NCC2(N3CCCCC3)CCCCC2)ccc1OC(F)F`, for which the activity change, negative = inhibition is inactive: -15.5%.

Consider `COc1ccc(NC2CCN(C(=O)OC(C)(C)C)CC2)cc1`, for which the activity change, negative = inhibition was inactive: -19.7%.

For the compound `CC(C)c1ccc(C(=O)NCC2(N3CCOCC3)CCCCC2)cc1`, the activity change, negative = inhibition was inactive: -7.19%.

Turning to `CN1CCN(CCOC(=O)C(O)(c2ccccc2)c2ccccc2)CC1`, the activity change, negative = inhibition is inactive: -10.1%.

Regarding `O=[N+]([O-])c1cc([N+](=O)[O-])c(NCC2CCS(=O)(=O)C2)c([N+](=O)[O-])c1` (configuration not stated), the activity change, negative = inhibition is inactive: -12%.

With `O=C(NCC1(N2CCCCC2)CCCCC1)c1cccc(C(F)(F)F)c1`, the activity change, negative = inhibition is inactive: 6.36%.

As for `CCCOc1cccc(C(=O)NCC2(N3CCOCC3)CCCCC2)c1`, the activity change, negative = inhibition was inactive: 27.3%.

`COc1cc(OC)c(C(=O)NCC2(N(C)C)CCCCC2)cc1OC`: the activity change, negative = inhibition was inactive: -6.73%.

Regarding `O=C(NCC1(N2CCOCC2)CCCCC1)c1cc(F)c(F)cc1Cl`, the activity change, negative = inhibition is inactive: -16.3%.

In the case of `CC(C)c1ccc(NC2CCN(C(=O)OC(C)(C)C)CC2)cc1`, the activity change, negative = inhibition was inactive: -9.23%.

In the case of `COc1ccc(CN(CCCl)CCCl)cc1Cl`, the activity change, negative = inhibition is inactive: -26.1%.

Regarding `CN(C)c1cccc(C(=O)NCC2(N3CCCCC3)CCCCC2)c1`, the activity change, negative = inhibition is inactive: -24.3%.

Take `O=[N+]([O-])c1cc([N+](=O)[O-])c(OC2CCCCC2O)c([N+](=O)[O-])c1` (configuration not stated): the activity change, negative = inhibition is inactive: -13.2%.

Take `O=[N+]([O-])c1cc([N+](=O)[O-])c(Nc2ccc(Cl)cc2)c([N+](=O)[O-])c1`: the activity change, negative = inhibition was inactive: -3.41%.

Consider `Cc1ccc(C(=O)NCC2(N(C)C)CCCCC2)o1`, for which the activity change, negative = inhibition is inactive: -16.9%.

Turning to `CCCCOc1ccccc1C(=O)NCC1(N2CCOCC2)CCCCC1`, the activity change, negative = inhibition is inactive: -11.9%.

Consider `CCCOc1ccc(C(=O)NCC2(N(C)C)CCCCC2)cc1OC`, for which the activity change, negative = inhibition was inactive: -11.8%.

In the case of `O=C(NCC1(N2CCOCC2)CCCCC1)c1ccccc1Br`, the activity change, negative = inhibition is inactive: -21.2%.

As to `O=C(OC1CN2CCC1CC2)c1ccc([N+](=O)[O-])cc1` (configuration not stated), the activity change, negative = inhibition is inactive: -20%.

With `O=C(NCC1(N2CCCCC2)CCCCC1)c1cncc(Br)c1`, the activity change, negative = inhibition is inactive: -9.03%.

Turning to `COc1ccc2c(c1O)-c1c(O)c(OC)cc3c1[C@H](C2)[N+](C)(C)CC3.O=[N+]([O-])c1cc([N+](=O)[O-])c([O-])c([N+](=O)[O-])c1[O-]`, the activity change, negative = inhibition was inactive: -30.6%.

Consider `CN1CCC(Nc2cccc(F)c2)CC1`, for which the activity change, negative = inhibition is inactive: -14.6%.

As for `Cc1cccc(NC2(C#N)CCN(Cc3ccccc3)CC2)c1`, the activity change, negative = inhibition was inactive: -10.1%.

On to `COc1ccc(C(=O)NCC2(N3CCCCC3)CCCCC2)cc1`, for which the activity change, negative = inhibition is inactive: -8.19%.

In the case of `COc1ccc(C(=O)NCC2(N3CCCCC3)CCCCC2)c(OC)c1OC`, the activity change, negative = inhibition was inactive: -1.64%.

As for `CC(C)(C)OC(=O)N1CCC(N(C(=O)c2ccccc2)c2ccc(F)cc2)CC1`, the activity change, negative = inhibition was inactive: -23.5%.

In the case of `O=C(NCC1(N2CCCCC2)CCCCC1)c1ccc(=O)[nH]c1`, the activity change, negative = inhibition was inactive: -18.7%.

Take `O=C(NCC1(N2CCCCC2)CCCCC1)c1cccs1`: the activity change, negative = inhibition is inactive: -1.86%.

Regarding `O=C(OC1CN2CCC1CC2)C1c2ccccc2Oc2ccccc21` (configuration not stated), the activity change, negative = inhibition was inactive: -18.3%.

`O=C(NCC1(N2CCCCC2)CCCCC1)c1ccc(Cl)s1`: the activity change, negative = inhibition was inactive: -3.15%.

Turning to `N#CC1(Nc2ccccc2)CCN(Cc2ccccc2)CC1`, the activity change, negative = inhibition is inactive: 9.18%.

In the case of `O=C1C(O)=C([N+](=O)[O-])C(=O)C(O)=C1[N+](=O)[O-]`, the activity change, negative = inhibition was inactive: 6.21%.

Regarding `COc1ccc(Cl)cc1C(=O)NCC1(N2CCOCC2)CCCCC1`, the activity change, negative = inhibition was inactive: -15.9%.

On to `CCOC(=O)N1CCC(Nc2ccc(OC)cc2)CC1`, for which the activity change, negative = inhibition was inactive: -10%.

`O=C(NCC1(N2CCCCC2)CCCCC1)c1ccc(Cl)nc1`: the activity change, negative = inhibition was inactive: -11.1%.

`Cc1cc(C)cc(N(C(=O)c2ccccc2)C2CCN(C(=O)OC(C)(C)C)CC2)c1`: the activity change, negative = inhibition is inactive: -22.6%.

For `O=C(NCC1(N2CCOCC2)CCCCC1)c1cc2ccccc2o1`, the activity change, negative = inhibition is inactive: -4.85%.

As to `COc1ccccc1C(=O)NCC1(N2CCOCC2)CCCCC1`, the activity change, negative = inhibition is inactive: -14.8%.

`O=C(NCC1(N2CCCCC2)CCCCC1)c1ccc(F)cc1`: the activity change, negative = inhibition is inactive: -23.4%.

Consider `CCCCOc1ccc(C(=O)NCC2(N3CCOCC3)CCCCC2)cc1`, for which the activity change, negative = inhibition was inactive: -6.73%.

With `O=P1(N(CCCl)CCCl)SCCCS1`, the activity change, negative = inhibition is inactive: 4.31%.

Consider `CCOC(=O)N1CCC(Nc2ccc(F)cc2)CC1`, for which the activity change, negative = inhibition was inactive: -19.3%.

As for `COc1ccc(NC2CCN(CCc3ccccc3)CC2)c(OC)c1`, the activity change, negative = inhibition was inactive: 3.85%.

Consider `O=C(NCC1(N2CCOCC2)CCCCC1)c1ccc(Cl)cc1`, for which the activity change, negative = inhibition is inactive: -21.9%.

With `O=C1CCN(Cc2ccccc2)CC1`, the activity change, negative = inhibition was inactive: -7.73%.

For the compound `CCOc1ccc(C)cc1CN(CCCl)CCCl`, the activity change, negative = inhibition is inactive: -7.13%.

Regarding `COc1cc(C(=O)NCC2(N(C)C)CCCCC2)ccc1OC(F)F`, the activity change, negative = inhibition was inactive: -12.9%.

Regarding `CCOC(=O)N1CCC(Nc2cccc(C)c2)CC1`, the activity change, negative = inhibition is inactive: -17.4%.
